The record followed here is article PMC3983368 (Journal of Medicinal Chemistry, 2014).

The chains behind the UniProt entries cited, without tags or fusion partners. Residues count along the entry.
UniProt Q00961, 20-1237: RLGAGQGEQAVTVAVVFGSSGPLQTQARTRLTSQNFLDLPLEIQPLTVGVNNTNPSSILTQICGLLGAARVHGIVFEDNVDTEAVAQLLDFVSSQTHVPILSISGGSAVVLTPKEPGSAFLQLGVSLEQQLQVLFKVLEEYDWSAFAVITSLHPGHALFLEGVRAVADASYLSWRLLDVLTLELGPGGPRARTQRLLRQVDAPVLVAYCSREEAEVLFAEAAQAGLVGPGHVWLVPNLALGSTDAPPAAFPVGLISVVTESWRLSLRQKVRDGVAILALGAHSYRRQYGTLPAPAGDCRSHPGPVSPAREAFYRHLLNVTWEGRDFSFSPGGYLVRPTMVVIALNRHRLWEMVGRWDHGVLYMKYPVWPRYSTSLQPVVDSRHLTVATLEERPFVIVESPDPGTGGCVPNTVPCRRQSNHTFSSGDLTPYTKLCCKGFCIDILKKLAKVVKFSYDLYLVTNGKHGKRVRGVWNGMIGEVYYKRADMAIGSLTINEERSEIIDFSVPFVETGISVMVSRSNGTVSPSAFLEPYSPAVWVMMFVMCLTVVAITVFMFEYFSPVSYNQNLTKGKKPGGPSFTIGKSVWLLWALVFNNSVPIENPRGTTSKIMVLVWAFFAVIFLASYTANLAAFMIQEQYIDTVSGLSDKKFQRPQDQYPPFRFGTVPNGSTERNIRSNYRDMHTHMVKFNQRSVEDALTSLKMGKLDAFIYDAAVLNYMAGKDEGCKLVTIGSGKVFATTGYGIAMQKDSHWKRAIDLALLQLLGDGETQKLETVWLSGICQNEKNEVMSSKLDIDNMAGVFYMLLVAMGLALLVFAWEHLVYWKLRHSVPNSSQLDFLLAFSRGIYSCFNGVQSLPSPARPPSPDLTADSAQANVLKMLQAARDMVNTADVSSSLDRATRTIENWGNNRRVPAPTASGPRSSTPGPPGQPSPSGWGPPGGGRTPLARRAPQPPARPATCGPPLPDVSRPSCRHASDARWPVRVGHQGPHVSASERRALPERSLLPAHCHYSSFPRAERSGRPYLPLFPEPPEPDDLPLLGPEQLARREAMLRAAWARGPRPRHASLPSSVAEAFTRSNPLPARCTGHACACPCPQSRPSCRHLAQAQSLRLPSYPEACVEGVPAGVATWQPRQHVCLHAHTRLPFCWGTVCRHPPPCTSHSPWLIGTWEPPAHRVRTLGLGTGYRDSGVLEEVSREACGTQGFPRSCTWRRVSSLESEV

This experiment deals with GluN1/GluN2C (Rattus norvegicus, UniProt P35439+Q00961). The note with it: 68 μM compound.

Structures are written as SMILES.

Regarding `COC(=O)c1ccc(C2C(C(C)=O)=C(O)C(=O)N2CCc2c[nH]c3ccccc23)cc1` (stereo not shown) [Compound 1, Methyl 4-(1-(2-(1H-Indol-3-yl)ethyl)-3-acetyl-4-hydroxy-5-oxo-2,5-dihydro-1H-pyrrol-2-yl)benzoate], the “effect on the EC50 of glycine or glutamate” value is on record as “did not detectably alter”.
